Measurements: publication PMC12915096, “AI‐Driven Acceleration of Fluorescence Probe Discovery” (Advanced Science, 2025)

The chains behind the UniProt entries cited, without tags or fusion partners.
UniProt Q13148, whole entry: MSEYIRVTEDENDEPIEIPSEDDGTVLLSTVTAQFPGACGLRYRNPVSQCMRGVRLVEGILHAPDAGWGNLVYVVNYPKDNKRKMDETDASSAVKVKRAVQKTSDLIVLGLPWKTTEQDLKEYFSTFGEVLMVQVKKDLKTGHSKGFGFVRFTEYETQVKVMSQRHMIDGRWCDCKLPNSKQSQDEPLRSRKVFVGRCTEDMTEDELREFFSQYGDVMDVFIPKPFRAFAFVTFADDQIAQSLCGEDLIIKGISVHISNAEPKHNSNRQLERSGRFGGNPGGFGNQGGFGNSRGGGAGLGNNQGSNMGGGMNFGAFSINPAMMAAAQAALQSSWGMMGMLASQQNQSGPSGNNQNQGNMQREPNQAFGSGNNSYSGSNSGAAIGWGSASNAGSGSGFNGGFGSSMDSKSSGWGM

Columns and labels:
[1] = target: TDP-43 aggregates (Homo sapiens, UniProt Q13148); assay: Thioflavin T (ThT) assay; conditions: A5 20 µM, ThT 5 µM, 6 µM TDP-43 aggregates
Excerpt: Application : Anti-TDP-43 Drug Screening by B3
Extended Data Figure 8: Drug screening applications of B3. a. Computational-experimental pipeline for
TDP-43 ligand discovery. Virtual screening of over 100,000 compounds against TDP-43 (PDB: 4Y00) yielded
5 candidate compounds, with probe B3 fluorescence assays confirming A5 as a novel ligand. Diagram of
the TDP-43-targeted drug screening workflow by combining computational methods and probe B3. Over
100,000 compounds were first screened by Computer-Aided Drug Design (CADD) with TDP-43 proteins
(PDB ID: 4Y00), resulting in 5 promising candidate ligands. Next, probe B3 was used as a fluorescence […]
of B3 fluorescence inhibition screening strategy. […]
aggregates (6µM) were incubated at room temperature for 1 h. The fluorescence intensity was measured and
B3 fluorescence inhibition rate was calculated relative to compound-free controls, the inhibition rate of B3
fluorescence signals was calculated and normalized relative to the control group (without compound). c. […]
fluorescence inhibition assay results.
maximal inhibition. […] Statistical significance was assessed using a one- […]
by standard binding assays. A5 (20µM) inhibited ThT (5µM) fluorescence when interacting with 6µM TDP-
43 aggregates. The data are the mean ± S.E.M., n = 3, statistical significance was assessed using a one-way […]

[2] = target: TDP-43 (Homo sapiens, UniProt Q13148); assay: Microscale thermophoresis (MST) assay; conditions: read-out: Dissociation constant Kd (TDP-43), MST; 50 nM labeled TDP-43, n = 3
Protocol: Microscale thermophoresis experiments were performed using a NanoTemper Monolith Instrument (NT.115). Purified TDP‐43 (Sangon Biotech, 0.9 mg/mL in Tris buffer) was labeled using the Monolith Protein Labeling Kit RED‐tris‐NTA (MO‐L018, Nanotemper, Germany) according to the manufacturer's instructions. For binding measurements, 50 nM labeled TDP‐43 was mixed with serially diluted concentrations of A5 in PBS‐T buffer. Samples were loaded into MST premium capillaries, and thermophoresis traces were recorded. Data analysis was performed by the MO Affinity Analysis software (Nanotemper), and the data was fit using the specific binding with Hill model in GraphPad 8.3.0.

For `Cc1nc2c(Cl)cc(Cl)cc2c(=O)n1-c1cccc(C(F)(F)F)c1`, the “Inhibitory effect on TDP-43 aggregation (ThT fluorescence)” value [1] was “decreased ThT fluorescence signal” and the Kd [2] was 445 nM.
